Columns and labels:
FRK [1] = target: T1, FRK (Homo sapiens, UniProt P42685); experiment: Kinobead competition chemoproteomics in cell lysate; type: biochemical
LYN = target: T2, LYN (Homo sapiens, UniProt P07948); experiment: Z'-LYTE kinase inhibition assay (SelectScreen), ATP at apparent KM; type: biochemical
T2 construct: recombinant LYN

Amino acid sequences for entries named in this document (tags omitted). A change or cut given only in a name is not applied to a line headed by its entry. Residues count along the entry.
UniProt P42685: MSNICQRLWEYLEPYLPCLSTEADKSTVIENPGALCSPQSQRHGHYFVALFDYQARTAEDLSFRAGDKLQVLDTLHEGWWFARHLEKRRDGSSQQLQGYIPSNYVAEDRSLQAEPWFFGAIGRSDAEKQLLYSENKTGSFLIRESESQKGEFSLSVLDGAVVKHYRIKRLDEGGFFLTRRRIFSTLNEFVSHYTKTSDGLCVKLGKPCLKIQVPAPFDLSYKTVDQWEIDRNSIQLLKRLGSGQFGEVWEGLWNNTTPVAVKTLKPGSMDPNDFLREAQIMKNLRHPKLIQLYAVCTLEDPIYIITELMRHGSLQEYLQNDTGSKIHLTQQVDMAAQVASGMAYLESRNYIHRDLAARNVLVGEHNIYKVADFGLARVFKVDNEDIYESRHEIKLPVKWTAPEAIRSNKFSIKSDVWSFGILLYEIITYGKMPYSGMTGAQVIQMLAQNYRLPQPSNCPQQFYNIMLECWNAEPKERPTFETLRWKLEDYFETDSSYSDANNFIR
UniProt P07948, 2-512: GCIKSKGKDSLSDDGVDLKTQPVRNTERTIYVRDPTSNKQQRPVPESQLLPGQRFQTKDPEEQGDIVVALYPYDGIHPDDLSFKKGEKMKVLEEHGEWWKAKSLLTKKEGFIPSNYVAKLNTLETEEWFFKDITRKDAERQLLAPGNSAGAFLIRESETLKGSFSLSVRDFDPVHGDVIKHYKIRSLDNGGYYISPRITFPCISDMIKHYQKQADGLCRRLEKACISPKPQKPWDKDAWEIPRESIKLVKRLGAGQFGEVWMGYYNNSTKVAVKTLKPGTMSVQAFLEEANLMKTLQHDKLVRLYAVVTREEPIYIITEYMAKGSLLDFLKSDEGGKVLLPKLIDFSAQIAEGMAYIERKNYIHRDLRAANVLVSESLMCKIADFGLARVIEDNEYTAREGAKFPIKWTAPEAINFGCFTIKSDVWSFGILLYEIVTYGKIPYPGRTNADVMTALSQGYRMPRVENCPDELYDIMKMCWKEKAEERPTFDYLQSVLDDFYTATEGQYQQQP

FRK [2] = target: T1, FRK; experiment: biochemical

| Kd (FRK [1]) [µM] | IC50 (LYN) [µM] | Compound | Kd (FRK [2]) [µM] |
| --- | --- | --- | --- |
| 11.4 | 0.0567 | SRC inhibitor 3 [SI-3] | – |
| – | – | COc1ccc2c(C(=O)Nc3ccc(NC(=O)c4nn(C5CCN(C(=O)CC(C)(C)C#N)CC5)c5ccc(F)cc45)cc3Cl)cnn2c1 [SI-3] | 11.4 |

Reference: publication PMC12823440, “Inhibitors supercharge kinase turnover through native proteolytic circuits” (Nature, 2025)
